Results taken from ChEMBL document CHEMBL1130238, “Synthesis and biological activity of a series of potent fluoromethyl ketone inhibitors of recombinant human calpain I” (J Med Chem, 1997).

Target: T1, Calpain-1 catalytic subunit (Homo sapiens) (UniProt P07384)
T1 sequence (whole entry): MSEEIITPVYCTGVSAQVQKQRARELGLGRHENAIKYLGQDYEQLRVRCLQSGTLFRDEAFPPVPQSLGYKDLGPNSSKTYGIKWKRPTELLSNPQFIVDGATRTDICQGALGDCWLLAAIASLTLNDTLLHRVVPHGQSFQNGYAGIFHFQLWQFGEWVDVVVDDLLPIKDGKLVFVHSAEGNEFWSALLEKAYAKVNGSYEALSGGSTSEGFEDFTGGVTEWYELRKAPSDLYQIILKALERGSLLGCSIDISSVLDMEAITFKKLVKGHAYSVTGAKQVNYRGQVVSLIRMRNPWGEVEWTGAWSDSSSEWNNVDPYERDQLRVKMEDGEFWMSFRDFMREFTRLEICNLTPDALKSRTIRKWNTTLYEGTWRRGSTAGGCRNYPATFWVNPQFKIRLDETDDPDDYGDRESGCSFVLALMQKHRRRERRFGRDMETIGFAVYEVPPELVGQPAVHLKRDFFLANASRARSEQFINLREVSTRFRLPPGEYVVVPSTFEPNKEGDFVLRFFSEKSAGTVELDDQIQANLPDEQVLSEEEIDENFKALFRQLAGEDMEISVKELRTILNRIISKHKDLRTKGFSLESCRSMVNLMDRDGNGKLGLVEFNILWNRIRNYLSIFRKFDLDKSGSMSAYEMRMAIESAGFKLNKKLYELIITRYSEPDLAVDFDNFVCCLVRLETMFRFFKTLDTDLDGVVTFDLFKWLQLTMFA
Test: Inhibition of Calpain-I receptor

K: 276000 M⁻¹ s⁻¹
Compound: CC(C)C[C@H](NC(=O)N1CCc2ccccc2C1)C(=O)NC(Cc1ccccc1)C(=O)CF (stereo partly specified)
